For data set [1], the target named is T1, erythrocyte AChE (Homo sapiens, UniProt P22303). The data set can be described thus: biochemical. More on the design: from tissue; host or cells: human whole peripheral blood (erythrocytes), K2EDTA anticoagulant.
The target in data set [2] is T1, erythrocyte AChE. The conditions noted are these: cited from earlier work.

Chains of the proteins cited; added tags and fusions are not shown. Residues count along the entry.
UniProt P22303, 32-617 isoform P22303-2 limits assumed: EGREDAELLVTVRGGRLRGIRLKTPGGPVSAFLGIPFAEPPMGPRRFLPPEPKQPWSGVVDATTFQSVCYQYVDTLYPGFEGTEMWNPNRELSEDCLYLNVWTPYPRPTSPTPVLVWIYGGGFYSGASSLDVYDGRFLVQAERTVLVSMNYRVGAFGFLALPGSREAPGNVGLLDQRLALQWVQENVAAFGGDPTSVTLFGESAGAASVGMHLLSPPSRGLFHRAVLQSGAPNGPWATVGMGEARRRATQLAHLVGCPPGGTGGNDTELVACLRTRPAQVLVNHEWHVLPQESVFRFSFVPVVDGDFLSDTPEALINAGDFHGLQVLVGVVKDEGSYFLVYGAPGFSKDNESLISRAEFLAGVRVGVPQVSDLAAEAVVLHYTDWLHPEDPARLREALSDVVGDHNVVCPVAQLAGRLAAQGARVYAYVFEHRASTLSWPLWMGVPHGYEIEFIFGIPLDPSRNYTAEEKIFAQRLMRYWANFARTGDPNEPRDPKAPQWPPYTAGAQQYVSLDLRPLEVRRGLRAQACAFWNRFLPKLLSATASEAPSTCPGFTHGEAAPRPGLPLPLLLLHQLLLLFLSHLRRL

In general, IC50 refers to the concentration at which inhibition is half-maximal. Higher therefore signals lower potency. `CCOP(=O)(OCC)OC(=CCl)c1ccc(Cl)cc1Cl` [chlorfenvinphos] displayed an IC50 in data set [1] of 27.7 µM. This counts as double-digit micromolar.

For the compound `COP(=S)(OC)Oc1ccc([N+](=O)[O-])cc1` [methyl parathion], the “Reported erythrocyte AChE activity/inhibition” value in data set [2] (0.029 mg/kg BW (2 mg), first dose of repeated exposure study, 2 male volunteers, ref Rodnitzky et al. 1978) is on record as “No significant erythrocyte AChE”. Further, in data set [2] (human, in vivo), the “Reported blood ChE activity (unclear if erythrocyte AChE or plasma BuChE)” value is “Significantly decreased” and the “acceptable daily intake (ADI) for humans” value is on record as 0.003 mg/kg BW.

Source of the values: publication PMC11966747, “Next Generation Risk Assessment of Acute Neurotoxicity from Organophosphate Exposures Using the In Vitro–In Silico Derived Dietary Comparator Ratio” (Environmental Science & Technology, 2025).
